# Results taken from patent US20250093270A1, “Method for Detecting Enzyme Activity and Fluorescent Probe Used in Said Method” (priority 2022, published 2025).
# System: cholinesterase (ChE)
# Conditions: time course fluorescence imaging in the microdevice
# Protocol: An enzyme stock solution was diluted with an assay buffer containing a fluorescent probe. Next, 40 μL of a reaction mixture was added to the microdevice (Simoa disk; Quanterx Corporation). Next, 80 μL of FC-70 (Sigma-Aldrich) was introduced into the microdevice to wash off the excess reaction mixture and form W/O droplets. A fluorescence signal of the catalytically produced fluorescent dye was measured under a fluorescence microscope, and the enzyme activity in the chamber was measured.
# Fluorescence images were acquired using a 20× dry objective (Plan Apo 20x), an sCMOS camera (ORCA-FusionC14440, Hamamatsu Photonics K.K.), a white LED lighting unit (X-Cite Xylis, Opto Science, Inc.), and a fluorescence microscope (Ti2, Nikon Corporation) equipped with a motorized stage. In the analysis, measurement was performed using a solution containing sSiR (10 μM) as an internal standard and the focus was adjusted using fluorescence. Images were acquired in tile scan mode at full focus.
# FIG. 5(c) illustrates a schematic diagram of a coupled assay of an acetylthiocholine system for detection of cholinesterase (ChE) activity.
# The image was acquired after incubation at 25° C. for 30 minutes.
# The upper view is a fluorescence image of a microdevice equipped with a probe (30 μM), acetylthiocholine (1 mM), and a 1/10,000-fold diluted plasma sample of a healthy human subject. […]
substance,measurement,value
"2,6-diPO3H2 Nitroolefin BODIPY [compound 17]",fading in time course imaging,about 5 %/captured image
